Where two headings read alike, the source gives them in different places.
Key:
[1] = biological target: truncated human beta-secretase (residues 1-458, His6-tagged at the C-terminus) (Homo sapiens (Human), UniProt P56817); test: BACE enzyme assay (fluorescence quench assay, Example 434A); type: biochemical
[2] = biological target: H4 neuroglioma cell line stably expressing APP with the KM-NL Swedish mutation (H4-APPsw); soluble Amyloid Beta 1-40 (Aβ 1-40) (Homo sapiens (Human), UniProt P56817); test: BACE cell assay: soluble Aβ 1-40 in culture media of H4-APPsw cells (AlphaLISA/ELISA); type: cell-based; details: in vitro cell activity; H4-APPsw cells treated overnight, secreted Aβ 1-40 in culture media
[3] = footnote a: protocols described in Example 434A, read-out: IC50

SMILES	IC50 [1, 3] [µM]	IC50 [1] [µM]	further results
CN1OC2(N=C1N)c1cc(-c3cc(F)cc(Cl)c3)ccc1CC21CCc2ccccc2CC1 (stereo not shown) [Compound 15]	–	–	IC50 ([1]; read-out: IC50): 0.0112 µM; IC50 [2]: < 5 µM
Cc1onc2c1CC1(CC2)Cc2ccc(-c3cncc(Cl)c3)cc2C12N=C(N)N(C)C2=O (stereo not shown) [Compound 466]	0.0132	–	–
COC1CCC2(CC1)Cc1ccc(C#CC3CC3)cc1C21N=C(N)N(C2CC2)C1=O (stereo not shown) [Compound 225]	–	0.02	–
Cc1onc2c1CC1(CC2)Cc2ccc(-c3cncc(Cl)c3)cc2C12N=C(N)N(C)O2 (stereo not shown) [Compound 452]	–	–	IC50 ([1]; read-out: IC50): 0.007 µM
CN1C(=O)C2(N=C1N)c1cc(-c3cccnc3)ccc1CC21CCc2ccccc2CC1 (stereo not shown) [Compound 394]	0.0014	–	–
COC1CCC2(CC1)Cc1ccc(-c3cccnc3F)cc1C21N=C(N)N(C)C1=O (stereo not shown) [Compound 189]	–	0.0029	–
COC1CCC2(CC1)Cc1ccc(-c3cncc(F)c3)cc1C21N=C(N)N(C)C1=O (stereo not shown) [Compound 188]	–	0.0019	–
Cc1onc2c1CC1(CC2)Cc2ccc(-c3cccc(C#N)c3)cc2C12N=C(N)N(C)C2=O (stereo not shown) [Compound 462]	–	0.0014	–
COC1CCC2(CC1)Cc1ccc(-c3cccnc3)cc1C21N=C(N)N(Cc2ccccc2)C1=O (stereo not shown) [Compound 139]	0.0136	–	–
COC1CCC2(CC1)Cc1ccc(-c3ccc(F)c(C#N)c3)cc1C21N=C(N)N(C)C1=O (stereo not shown) [Compound 179]	–	0.0026	–
CCN1C(=O)C2(N=C1N)c1cc(-c3cccc(Cl)c3)ccc1CC21CCC(OC)CC1 (stereo not shown) [Compound 136]	–	0.0081	–
Cc1onc2c1CC1(CC2)Cc2ccc(-c3cccnc3)cc2C12N=C(N)N(C)C2=O (stereo not shown) [Compound 464]	0.0079	–	–
CN1OC2(N=C1N)c1cc(-c3cccc(C#N)c3)ccc1CC21CCCCC1 (stereo not shown) [Compound 94]	–	–	IC50 ([1]; read-out: IC50): 0.222 µM
COC1CCC2(CC1)Cc1ccc(C3CC3)cc1C21N=C(N)N(C)C1=O (stereo not shown) [Compound 191]	–	0.102	–
COC1CCC2(CC1)Cc1ccc(-c3cncc(Cl)c3)cc1C21N=C(N)N(C)C1=O (stereo not shown) [Compound 187]	–	0.0026	–
COC1CCC2(CC1)Cc1ccc(-c3cc(Cl)cc(C#N)c3)cc1C21N=C(N)N(C)C1=O (stereo not shown) [Compound 193]	–	0.0008	–
CN1OC2(N=C1N)c1cc(-c3cccc(OC(F)(F)F)c3)ccc1CC21CCc2ccccc2CC1 (stereo not shown) [Compound 38]	–	–	IC50 ([1]; read-out: IC50): 0.13 µM; IC50 [2]: < 50 µM
COC1CCC2(CC1)Cc1ccc(-c3cccc(Cl)c3)cc1C21N=C(N)N(C(C)C)C1=O (stereo not shown) [Compound 153]	–	0.0366	–
COC1CCC2(CC1)Cc1ccc(-c3cccc(OC(F)(F)F)c3)cc1C21N=C(N)N(C)O1 (stereo not shown) [Compound 9]	0.007	–	IC50 [2]: < 0.5 µM
COC1CCC2(CC1)Cc1ccc(C#CC3(O)CCCC3)cc1C21N=C(N)N(C)C1=O (stereo not shown) [Compound 195]	–	0.0497	–
COC1CCC2(CC1)Cc1ccc(-c3ccc(F)c(C#N)c3)cc1C21N=C(N)N(C)O1 (stereo not shown) [Compound 12]	–	–	IC50 ([1]; read-out: IC50): 0.0079 µM; IC50 [2]: < 0.1 µM
CN1OC2(N=C1N)c1cc(C3CC3)ccc1CC21CCc2ccccc2CC1 (stereo not shown) [Compound 454]	0.128	–	–
COC1CCC2(CC1)Cc1ccc(-c3cc(F)cc(F)c3)cc1C21N=C(N)N(C)C1=O (stereo not shown) [Compound 183]	–	0.001	–
CN1OC2(N=C1N)c1cc(-c3cc(Cl)cc(Cl)c3)ccc1CC21CCc2ccccc2CC1 (stereo not shown) [Compound 21]	–	–	IC50 ([1]; read-out: IC50): 0.0189 µM; IC50 [2]: < 5 µM

SMILES	IC50 [1, 3] [µM]	IC50 [1] [µM]	further results
CO[C@H]1CC[C@@]2(CC1)Cc1ccc(Br)cc1C21CC(=O)N(C)C(N)=N1 (stereo partly shown) [Compound 66]	200	–	–
CN1OC2(N=C1N)c1cc(-c3cc(F)cc(Cl)c3)ccc1OC21CCc2ccccc2CC1 (stereo not shown) [Compound 102]	0.0147	–	–
CO[C@H]1CC[C@]2(CC1)Cc1ccccc1C21N=C(N)N(C)C1=O (stereo partly shown) [Compound 218]	–	0.161	–
COC1CCC2(CC1)Cc1ccc(-c3cccc(C#N)c3)cc1C21N=C(N)N(C2CC2)C1=O (stereo not shown) [Compound 227]	0.012	–	–
COC1CCC2(CC1)Cc1ccc(-c3cncc(C(F)(F)F)c3)cc1C21N=C(N)N(C)C1=O (stereo not shown) [Compound 185]	–	0.0028	–
COC1CCC2(CC1)Cc1ccc(-c3cnccn3)cc1C21N=C(N)N(C)C1=O (stereo not shown) [Compound 197]	–	0.0296	–
CN1OC2(N=C1N)c1cc(-c3cccc(Cl)c3)ccc1CC21CCc2ccccc2CC1 (stereo not shown) [Compound 17]	–	–	IC50 ([1]; read-out: IC50): 0.0121 µM; IC50 [2]: < 1 µM
CCN1C(=O)C2(N=C1N)c1cc(-c3cccc(C#N)c3)ccc1CC21CCC(OC)CC1 (stereo not shown) [Compound 135]	0.0073	–	–
CN1OC2(N=C1N)c1cc(-c3cccc(C#N)c3)ccc1CC21CCc2ccccc2CC1 (stereo not shown) [Compound 22]	–	–	IC50 ([1]; read-out: IC50): 0.0193 µM; IC50 [2]: < 5 µM
COC1CCC2(CC1)Cc1ccc(Br)cc1C21N=C(N)N(C2CC2)C1=O (stereo not shown) [Compound 226]	–	0.351	–
COC1CCC2(CC1)Cc1ccc(-c3ccc(F)c(Cl)c3)cc1C21N=C(N)N(C)C1=O (stereo not shown) [Compound 178]	–	0.0006	–
COC1CCC2(CC1)Cc1ccc(C#N)cc1C21N=C(N)N(C)C1=O (stereo not shown) [Compound 214]	0.0309	–	–
COC1CCC2(CC1)Cc1ccc(C#Cc3ccsc3)cc1C21N=C(N)N(C)C1=O (stereo not shown) [Compound 194]	–	0.0174	–
COC1CCC2(CC1)Cc1ccc(-c3cncc(C(F)(F)F)c3)cc1C21N=C(N)N(C(C)C)C1=O (stereo not shown) [Compound 155]	0.0122	–	–
COC1CCC2(CC1)Cc1ccc(-c3cc(F)cc(C#N)c3)cc1C21N=C(N)N(C)C1=O (stereo not shown) [Compound 192]	–	0.00096	–
COC1CCC2(CC1)Cc1ccc(-c3cccc(Cl)c3)cc1C21N=C(N)N(C)O1 (stereo not shown) [Compound 5]	0.0045	–	IC50 [2]: < 0.5 µM
COC1CCC2(CC1)Cc1ccc(-c3ccc(F)c(Cl)c3)cc1C21N=C(N)N(C)O1 (stereo not shown) [Compound 13]	–	–	IC50 ([1]; read-out: IC50): 0.0088 µM; IC50 [2]: < 0.5 µM
COC1CCC2(CC1)Cc1ccc(-c3cccc(C#N)c3)cc1C21N=C(N)N(C(C)C)C1=O (stereo not shown) [Compound 154]	0.0301	–	–
CN1OC2(N=C1N)c1cc(-c3cc(Cl)cc(C#N)c3)ccc1CC21CCc2ccccc2CC1 (stereo not shown) [Compound 10]	–	–	IC50 ([1]; read-out: IC50): 0.0074 µM; IC50 [2]: < 5 µM
CN1OC2(N=C1N)c1cc(-c3ccc(F)c(Cl)c3)ccc1CC21CCc2ccccc2CC1 (stereo not shown) [Compound 23]	–	–	IC50 ([1]; read-out: IC50): 0.0207 µM; IC50 [2]: < 5 µM
CN1OC2(N=C1N)c1cc(-c3cccc(C#N)c3)ccc1CC21CCc2cc(F)c(F)cc2C1 (stereo not shown) [Compound 33]	0.089	–	–
COc1cc(Cl)cc(-c2ccc3c(c2)C2(N=C(N)N(C)O2)C2(CCc4ccccc4CC2)C3)c1 (stereo not shown) [Compound 27]	–	–	IC50 ([1]; read-out: IC50): 0.0383 µM; IC50 [2]: < 10 µM
COC1CCC2(CCc3ccc(-c4cccc(C#N)c4)cc3C23N=C(N)N(C)O3)CC1 (stereo not shown) [Compound 52]	–	–	IC50 ([1]; read-out: IC50): 0.506 µM; IC50 [2]: < 5 µM
COC1CCC2(CC1)Cc1ccc(-c3cccnc3)cc1C21N=C(N)N(C)C1=O (stereo not shown) [Compound 184]	–	0.0033	–
